We go through three molecules from ChEMBL document CHEMBL4364292, “Discovery of a Potent and Selective CCR4 Antagonist That Inhibits Treg Trafficking into the Tumor Microenvironment” (J Med Chem, 2019).

The structures appear in SMILES notation. pIC50: −log10 of the molar value.

The assay has as its target T1, C-C chemokine receptor type 4 (Homo sapiens, UniProt P51679).
T1 sequence (P51679 whole entry): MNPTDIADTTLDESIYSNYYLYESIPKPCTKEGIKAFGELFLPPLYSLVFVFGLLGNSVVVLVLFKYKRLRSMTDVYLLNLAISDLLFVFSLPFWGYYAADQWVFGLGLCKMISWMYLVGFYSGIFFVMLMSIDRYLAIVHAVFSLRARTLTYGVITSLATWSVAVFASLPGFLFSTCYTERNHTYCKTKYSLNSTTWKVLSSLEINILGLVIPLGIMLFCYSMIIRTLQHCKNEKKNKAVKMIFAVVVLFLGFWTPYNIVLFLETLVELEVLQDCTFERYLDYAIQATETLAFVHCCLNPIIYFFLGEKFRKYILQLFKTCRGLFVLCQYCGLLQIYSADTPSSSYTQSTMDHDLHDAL
Description: Antagonist activity at human CCR4 expressed in rat chem-5 cells assessed as inhibition of CCL22-induced calcium flux measured at 2.5 secs time interval for 45 secs by fluorescence assay. In kind it is functional, cell-based. The essentials:
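Calcium flux functional readout of CCR4 antagonism, run without serum; IC50 reported.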
A general note: Calcium flux is commonly read through the fluorescence of an indicator in the cells.

`Cc1nn([C@H](C)c2ccc(Cl)cc2Cl)c2nc(N3CC[C@H](N4CCCCCC4)[C@H](C)C3)cnc12`: the pIC50 (as a rule, −log10 of the IC50, conventionally taken in molar units) was 7.64.
To `Cc1nn([C@H](C)c2ccc(Cl)cc2Cl)c2nc(N3CC[C@H](N4CCC4)[C@H](C)C3)cnc12` belongs 7.24; to `Cc1nn([C@H](C)c2ccc(Cl)cc2Cl)c2nc(N3CC[C@H](N4CCC[C@H]4CO)[C@H](C)C3)cnc12`, 7.49.
